According to publication PMC9545474, “Anticancer Water‐Soluble Organoruthenium Complexes: Synthesis and Preclinical Evaluation” (Chembiochem, 2022):
Where two headings read alike, the source gives them in different places.

Tests used:
[1] = system: A2780 subcutaneous tumour xenograft; experiment: Efficacy in A2780 subcutaneous tumour xenograft model; format: in vivo, Female Balb/c immunodeficient nude mice; settings: 6 at 50 mg/kg, 8 at 15 mg/kg, i.p.
Description: (§1) Compounds: All compounds were provided in powdered form and stored in the −20 °C freezer. They were formulated just before use. […] The drugs were then administered within 10 minutes of initial dilution.
(§2) Animals: Female Balb/c immunodeficient nude mice aged 6–12 weeks were used (Envigo, Blackthorn, UK). Mice were kept in cages housed in isolation cabinets in an air‐conditioned room with regular alternating cycles of light and darkness. They received Teklad 2018 diet (Envigo, Blackthorn, UK) and water ad libitum. […]
(§3) S.c. xenograft tumours: A2780/WT and A2780/cis tumours were excised from a donor animal, placed in sterile physiological saline containing antibiotics and cut into small fragments of approximately 5 mm^3. […] Once the tumours could accurately be measured by callipers, the mice were allocated into groups (control or treated) by restricted randomisation to keep group mean tumour size variation to a minimum, with 3 animals set up per group. […]
(§4) The effects of therapy were assessed by frequent monitoring growth of the tumours and body weight. Two‐dimensional calliper measurements of the tumours were taken, and volumes calculated using the formula (a^2×b)/2, where a is the smaller and b the larger diameter of the tumour. […]

[2] = mice; for Toxicity in MTD run: i.p.
Description: as §1
Animals: Female Balb/c immunodeficient nude mice aged 6–12 weeks were used (Envigo, Blackthorn, UK). Mice were kept in cages housed in isolation cabinets in an air‐conditioned room with regular alternating cycles of light and darkness. They received Teklad 2018 diet (Envigo, Blackthorn, UK) and water ad libitum. All animal procedures were carried out under a project licence issued by the UK Home Office and UK National Cancer Research Institute Guidelines for the Welfare of Animals were followed throughout.
(1 picture or pasted object on this page, not shown here)

[3] = system: A2780cisR subcutaneous tumour xenograft; experiment: Efficacy in A2780cisR (A2780/cis) subcutaneous tumour xenograft model; format: in vivo, Female Balb/c immunodeficient nude mice; settings: 6 at 50 mg/kg, 8 at 15 mg/kg, i.p.
Description: as §1, §2, §3, §4

Q: With “(η^6‐p‐cymene)(TPPTS)Ru(Mnt) [Complex 6]” as the substance, how does the “Toxicity in xenograft study” value [1] read?
A: No toxicity was observed

Q: What about the “maximum tolerated dose (MTD)” value ([2]; i.p. daily, monitored for a further two weeks) of the same substance?
A: 50 mg/kg

Q: What about the “Toxicity in MTD run” value ([2]; 20mg/kg, run 2) of the same substance?
A: no toxicity was observed

Q: What about the “Toxicity in MTD run” value ([2]; 50mg/kg/dose, whole schedule, final run) of the same substance?
A: No evidence of toxicity was seen

Q: What about the “Toxicity in xenograft study” value [3] of the same substance?
A: No toxicity was observed
